Sequences of proteins named here, by UniProt entry; tags and fusion partners are left off. A change or cut given only in a name is not applied to a line headed by its entry.
UniProt Q12809: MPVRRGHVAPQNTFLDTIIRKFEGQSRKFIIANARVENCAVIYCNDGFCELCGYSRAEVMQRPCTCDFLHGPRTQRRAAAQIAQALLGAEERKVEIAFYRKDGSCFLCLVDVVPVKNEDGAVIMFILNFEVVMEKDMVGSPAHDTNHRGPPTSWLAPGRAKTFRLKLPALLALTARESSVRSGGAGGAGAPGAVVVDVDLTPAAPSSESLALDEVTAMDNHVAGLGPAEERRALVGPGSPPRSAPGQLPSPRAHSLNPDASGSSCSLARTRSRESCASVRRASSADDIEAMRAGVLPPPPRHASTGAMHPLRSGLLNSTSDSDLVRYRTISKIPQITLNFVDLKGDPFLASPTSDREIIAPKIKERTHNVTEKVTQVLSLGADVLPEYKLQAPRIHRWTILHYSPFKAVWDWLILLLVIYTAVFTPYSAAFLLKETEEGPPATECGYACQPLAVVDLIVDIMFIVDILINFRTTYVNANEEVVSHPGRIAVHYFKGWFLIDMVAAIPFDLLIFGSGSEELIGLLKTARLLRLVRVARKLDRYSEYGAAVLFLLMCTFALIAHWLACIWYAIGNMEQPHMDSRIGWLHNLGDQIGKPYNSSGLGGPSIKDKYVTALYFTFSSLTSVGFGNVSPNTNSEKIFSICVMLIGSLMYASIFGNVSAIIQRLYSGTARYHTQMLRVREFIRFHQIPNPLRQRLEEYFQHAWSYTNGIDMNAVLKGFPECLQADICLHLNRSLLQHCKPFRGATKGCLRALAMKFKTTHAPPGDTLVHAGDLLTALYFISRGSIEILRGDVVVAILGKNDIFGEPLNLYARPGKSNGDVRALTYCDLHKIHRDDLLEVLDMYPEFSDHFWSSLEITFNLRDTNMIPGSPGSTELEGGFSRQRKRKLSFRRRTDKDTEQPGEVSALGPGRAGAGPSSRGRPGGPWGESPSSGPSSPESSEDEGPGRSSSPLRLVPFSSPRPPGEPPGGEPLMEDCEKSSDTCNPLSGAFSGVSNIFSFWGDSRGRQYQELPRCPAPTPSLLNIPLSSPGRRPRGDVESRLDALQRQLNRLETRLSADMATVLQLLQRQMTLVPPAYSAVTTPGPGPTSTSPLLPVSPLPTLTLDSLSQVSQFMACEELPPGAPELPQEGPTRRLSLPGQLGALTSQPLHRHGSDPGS

In paper PMC9103758 (International Journal of Molecular Sciences, 2022):

Target: T1, hERG K+ channel (Homo sapiens, UniProt Q12809)
T1 construct: expressed in transfected cells; called HEK293
Experiment: FluxOR thallium flux assay in HEK293T cells expressing hERG
Type: cell-based
Settings: 50 μM
Procedure: […]. (C) Summary of dose-response (mean ± S.E., n = 5). […]. (F) Summary of dose−response (mean ± S.E., n = 6).
HEK293 cells stably expressing human Kv11.1 (hERG) were cultured in 96-well plates. After 48 h, the cells were incubated at 28 °C for 4 h to increase the membrane expression of hERG. The culture medium was replaced with a 80 μL/well of FluxOR (Invitrogen, Waltham, MA, USA) loading buffer and incubated for 1 h at 37 °C in the dark. After removing the loading buffer, 100 μL of assay buffer was added to each well. To measure the effect of VI-116 and DCPIB on hERG channels, the cells were pretreated with test compounds for 10 min. FluxOR fluorescence (excitation/emission: 490/525 nm) was recorded for 4 s before the addition of 20 μL of stimulus buffer containing thallium ions, and the fluorescence was recorded. FluxOR fluorescence was recorded and analyzed using the FLUOstar Omega microplate reader (BMG Labtech, Ortenberg, Germany) and the MARS Data Analysis Software (BMG Labtech, Ortenberg, Germany). All buffers were prepared according to the manufacturer’s instructions.

COc1cc(N)c(Cl)cc1C(=O)NC1CCN(CCCOc2ccc(F)cc2)CC1OC (stereo not shown) [cisapride, reference compound]
inhibition of hERG channel: inhibited
